# Screening data as filed in PubChem.
# DT40 TDP1 CPT = DT40-hTDP1 cell growth loss with CPT | chicken DT40 Tdp1-/-;hTDP1 cells + 20 nM CPT, ATP luminescence, 48 h | 12% of 420,000 active | Potency, µM (series often up to 46.2 µM), hits mostly inhibitors; further: nearly all actives have a fitted effect of over 55% in size
#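 Chicken DT40 Tdp1-/- cells complemented with human TDP1, 400 cells/well, exposed to compounds plus 20 nM camptothecin for at least 48 h at 37 C; viability read as ATP content by CellTiter-Glo luminescence.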
# TDP1 cell noCPT = qHTS for Inhibitors of human tyrosyl-DNA phosphodiesterase 1 (TDP1): qHTS in cells in absence of CPT; DT40 Tdp1-/- hTDP1 cells, no CPT, ATP luminescence, 48 h; Potency, µM (top dose mostly 46.2 µM), most hits filed as inhibitors; 15% of 420,000 active; further: nearly all actives have a fitted effect of over 55% in size
#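 Readout: luminescence from CellTiter-Glo after 30 min in the dark at RT. Cells: DT40 Tdp1-/- with stable hTDP1, 400/well. Exposure: compounds alone, ≥48 hr, 37 °C.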
# miR-21 reporter = raises the signal of a miR-21 reporter | HeLa miR-21 FLuc reporter, luciferase, 48 h | Potency, µM (highest dose often 38.3 µM) | 340,000 tested, under 10 active | AID 2288; active = well fitted rising curve with a large enough effect; inconclusive = small, poorly fitted or top-dose-only effect; inactive = no such curve, though single readings can be large or run the other way;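 also: miR-21 action dims this reporter so a rising signal means less miR-21 action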
#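 HeLa cells stably expressing CMV-driven firefly luciferase with a downstream miR-21 binding sequence, endogenously expressing miR-21, were treated with titrations (up to about 40uM final) for 48 hours at 37 degree Celsius. Luciferase luminescence was read after lysis.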
# TDP1 block = inhibitors of human tyrosyl-DNA phosphodiesterase TDP1 | Q9NUW8 | recombinant TDP1, AlphaScreen DNA substrate cleavage | Potency, µM (series often up to 130 µM), actives largely listed as inhibitors | 0.28% of 350,000 active | AID 485290; further: nearly all actives have a fitted effect of over 40% in size
#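 Compounds were preincubated with Tdp1 (1 nM final) for 15 min at room temperature before substrate (15 nM final) started a 5 min reaction; beads (10 ug/ml final) were then added for 10 min before AlphaScreen detection.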
# uPA surface inh = cell surface uPA generation inhibition; cell surface uPA generation assay, qHTS; Potency, µM (series often up to 38.3 µM), most hits filed as inhibitors; 0.31% of 330,000 active; active means well fitted inhibition curve with a large enough effect; inconclusive means small, poorly fitted or top-dose-only effect; inactive means no such curve, though single readings can be large or run the other way; tested in mouse RAW 264.7 cells; further: nearly all actives have a fitted effect of over 55% in size
# Hits are given with their value; 0 = inactive; ? = inconclusive; - = no result; [ ] = dose if it differs, or a comment. Compounds with a hit are over-represented: about 16% of the library has one in this group of screens. Unless noted, the call rests on the fitted dose curve; in most records, active means well fitted curve in the direction sought with a large enough effect; inconclusive means small, poorly fitted or top-dose-only effect, or another doubt; inactive means no such curve, though single readings can be large; an effect the other way counts as inactive or inconclusive.
SMILES,DT40 TDP1 CPT,TDP1 cell noCPT,miR-21 reporter,TDP1 block,uPA surface inh
N#C/C(=C\c1ccc(Oc2ccc(C(F)(F)F)cc2[N+](=O)[O-])cc1)c1nc2ccccc2[nH]1,0,21µM,0,0,0
N#C/C(=C\c1ccncc1)c1nc2ccccc2[nH]1,?,?,0,0,0
N#C/C(=C/c1ccc(N2CCCC2)c([N+](=O)[O-])c1)c1nc2ccccc2[nH]1,13µM,15µM,0,0,0
CC(Cl)C(=O)NC(=O)NC12CC3CC(CC(C3)C1)C2 (stereo not drawn),16µM,21µM,0,0,0
CC(C)(C)NC(=O)NC12CC3CC(CC(C3)C1)C2,0,0,0,0,0
Cc1ccc(NC(=O)c2cc(-c3cc(F)ccc3OCC3CCCO3)n[nH]2)cc1NS(C)(=O)=O (stereo not drawn),15µM,15µM,-,-,-
COc1cc(CNC(=O)c2cc(-c3cc(F)ccc3OCC3CCCO3)n[nH]2)cc(OC)c1 (stereo not drawn),?,21µM,-,-,-
CC(C)CC1NC(=S)N(C2CCCCC2)C1=O (stereo not drawn),8.2µM,15µM,0,0,0
CC1=C(C(=O)N(C)C)CC(CC(=O)NCc2ccco2)C(=O)N1Cc1ccccc1 (stereo not drawn),0,0,-,-,-
O=C(O)CCCn1cc(NC(=O)c2cc(F)c(F)cc2Cl)cn1,?,23µM,0,-,0
Cc1ccc(/C=N/NC(=O)CN(Cc2ccccc2)S(=O)(=O)c2ccc3c(c2)OCCO3)cc1,0,0,0,0,0
CCOc1ccc(CCNC(=O)CCc2nnc3ccc(N4CCCCC4)nn23)cc1OCC,?,12µM,0,-,0
CCOC(=O)c1ccc(NC(=O)CCc2nnc3ccc(N4CCCC4)nn23)cc1,26µM,?,0,0,0
CCc1ccc(NC(=O)CCc2nnc3ccc(N4CCC5(CC4)OCCO5)nn23)cc1,0,0,0,0,0
COc1ccc(N2CCN(c3ccc4nnc(CCC(=O)Nc5ccc(C)cc5)n4n3)CC2)cc1,?,23µM,0,-,0
CCN(CC)c1ccc(NC(=O)CCc2nnc3ccc(N4CCCC4)nn23)c(C)c1,15µM,23µM,0,-,0
COc1ccc(NC(=O)CCc2nnc3ccc(N4CCC(C)CC4)nn23)cc1,?,?,0,0,0
Cc1ccccc1NC(=O)CCc1nnc2ccc(N3CCC4(CC3)OCCO4)nn12,0,0,0,0,0
CC(=O)C1=NOC2C(=O)N(c3ccccc3)C(=O)C12 (stereo not drawn),0,0,0,-,0
CC1=CC(=O)N(c2ccn(C)n2)C1=O,?,?,0,0,0
CCOc1ccc(C(=O)CSCC(=O)O)cc1,0,0,0,0,0
COc1ccc(C(C(=O)NC(C)(C)C)N(C(=O)CCC(=O)Nc2cc(C)on2)c2ccc3c(c2)OCCO3)cc1 (stereo not drawn),0,?,0,0[0.0935 µM],0
Cc1ccccc1NS(=O)(=O)c1ccc(C(=O)NCc2ccccc2CN2CCCC2)cc1,?,23µM,-,-,-
O=C(NCc1ccccc1CN1CCCC1)c1ccc(S(=O)(=O)Nc2ccccc2)cc1,21µM,13µM,-,-,-
O=C(NCc1ccccc1CN1CCCC1)c1ccc(S(=O)(=O)Nc2ccccc2F)cc1,0,?,-,-,-
SMILES,DT40 TDP1 CPT,TDP1 cell noCPT,miR-21 reporter,TDP1 block,uPA surface inh
CCCn1c(Cc2ccccc2)nnc1SCC(=O)N1CCOCC1,0,0,0,0,0
CCOc1ccccc1/C=C/c1onc(C)c1S(=O)(=O)N1CCC(C(=O)NC(C)C)CC1,?,0,0,0,0
COc1ccc(S(=O)(=O)N(CC(=O)Nc2cc(Cl)ccc2C)Cc2ccccc2)cc1OC,15µM,?,?,0[12.3 µM],-
COc1ccc(NC(=O)CN(Cc2ccccc2)S(=O)(=O)c2ccc(C)cc2)cc1Cl,18µM,?,0,0[12.3 µM],-
Cc1ccc(S(=O)(=O)N2CCCCC2)cc1C(=O)OCC(=O)NC(=O)NC12CC3CC(CC(C3)C1)C2,0,0,0,0,0
NC(=O)c1ccc(OCC(F)(F)C(F)(F)C(F)(F)C(F)(F)C(F)(F)C(F)F)cc1,0,0,0,0,0
CC1=CC(C)(C)n2c(O)c(C3=NC(=S)NC3=O)c3cc(OC(=O)c4cccc5ccccc45)cc1c32,?,23µM,0,0,0
CC1=CC(C)(C)n2c(O)c(N=NC(N)=S)c3cc(C)cc1c32,0,0,0,0,?
COc1cccc(-c2nc3c(c(=O)[nH]c(=O)n3Cc3ccccc3)n2CCO)c1OC(F)F,0,0,0,0,0
O=C1c2cccc3c([N+](=O)[O-])ccc(c23)C(=O)N1CCc1ccccn1,13µM,5.2µM,0,0,0
O=C1c2ccccc2C(=O)N1CCc1ccccn1,?,0,0,0,-
CN(C)CCCN1C(=O)c2cccc3c([N+](=O)[O-])ccc(c23)C1=O,2.3µM,2.3µM,?,0,0
O=C1c2cccc([N+](=O)[O-])c2C(=O)N1CCO,0,0,0,0,0
Cc1ccc(NC(=O)Nc2nnc(Cc3ccc([N+](=O)[O-])cc3)s2)cc1C,?,?,0,0,0
Cc1c(CCOC(=O)C23CC4CC(CC(C4)C2)C3)sc[n+]1Cc1ccccc1,?,10µM,0,0,0
Cc1c(CCOC(=O)C23CC4CC(CC(C)(C4)C2)C3)sc[n+]1Cc1ccccc1,4.1µM,2.9µM,0,0,0
O=C(CSc1nc2sc3c(c2c(=O)n1-c1ccccc1)CCCC3)NCc1ccco1,15µM,?,0,0,0
CC(=O)CSc1ncnc2sc3c(c12)CCCC3,0,?,0,0,0
CC(C)c1nc2sc3c(SCC(=O)NCc4ccco4)ncnc3c2c2c1CCC2,?,16µM,0,0,0
c1coc(CNc2nc3sc4c(c3c3ncnn23)CCCC4)c1,?,12µM,0,0,0
CC1(C)Cc2c(sc3nc(SCC(=O)NCc4ccco4)n(-c4ccccc4)c(=O)c23)CS1,0,0,0,0,0
CC(=O)C(Sc1ncnc2sc3c(c12)CCCC3)C(C)=O,13µM,?,0,0,0
O=C(Nc1ncn[nH]1)c1cc([N+](=O)[O-])ccc1Cl,0,0,0,-,0
O=C(CSc1ncnc2sc3c(c12)CCCC3)c1ccccc1,29µM,?,0,?,0
O=C(CSc1ncnc2sc3c(c12)CCCCC3)NCc1ccco1,9.2µM,9.2µM,0,0,0
O=C(CSc1ncnc2sc3c(c12)CCCC3)c1ccco1,?,?,0,0,0
Cc1cc(C)c2nc3s/c(=C/c4ccccc4)c(=O)n3c2c1,-,-,0,0,-
Cc1cccnc1NC(=S)NCc1ccco1,0,0,0,0,?
O=C(NNC(=O)C1C2CCCCC21)c1coc(=O)c(Br)c1 (stereo not drawn),4.1µM,4.1µM,0,0,0
O=C(COC(=O)c1cc(Br)c(Br)s1)NCCC1=CCCCC1,23µM,21µM,0,0,0
